# Experimental vapor pressure values from OPERA 2.9

Data: OPERA 2.9 data sets, kmansouri/OPERA on GitHub.

Vapor pressure is log10 of mmHg; the set covers 15 to 30 °C, mostly 20 to 25 °C.
A value with < or ≤ is an upper limit.
The databases behind each value are named after "via".

For O=C(CCCl)OCCCCCl the data give log VP -2.921 (log10 mmHg) (via eChemPortal).
For CCOC(=O)C(C)C(Br)CBr (configuration not stated) the data give log VP -2.28 (log10 mmHg) (via eChemPortal).
For Cc1nc2n(c(=O)c1CCN1CCC(/C(=N/O)c3ccc(F)cc3F)CC1)CCCC2 the data give log VP -8.106 (log10 mmHg) (via eChemPortal).
For C=CCCCC=CCOC the data give log VP 0.033 (log10 mmHg) (via eChemPortal).
For CC1=[N+](CCCCS(=O)(=O)[O-])c2ccc3ccccc3c2C1(C)C the data give log VP -9.698 (log10 mmHg) (via eChemPortal).
For NC1=CC(=Nc2ccc(N)cc2)C(N)=CC1=Nc1ccc(N)cc1 the data give log VP -10.37 (log10 mmHg) (via OCHEM).
For CCN(CC)c1ccc2cc(-c3nc4cc(Cl)ccc4o3)c(=O)oc2c1 the data give log VP -9.462 (log10 mmHg) (via eChemPortal).
For O=C(Cl)COc1ccc(Cl)cc1Cl the data give log VP -3.625 (log10 mmHg) (via eChemPortal).
For C=C[Si](ON=C(C)CC)(ON=C(C)CC)ON=C(C)CC the data give log VP -3.727 (log10 mmHg) (via eChemPortal).
For NC(CO)(CO)CO the data give log VP -5.698 (log10 mmHg) (via eChemPortal).
For CC1(C)CC(OC(=O)CCCCCCCCC(=O)OC2CC(C)(C)NC(C)(C)C2)CC(C)(C)N1 the data give log VP -10 (log10 mmHg) (via eChemPortal).
For CN1c2ccccc2C(=O)c2ccc(Cl)cc2S1(=O)=O the data give log VP -8.897 (log10 mmHg) (via eChemPortal).
For CO[C@@H]1C[C@H](C)CC[C@H]1C(C)C the data give log VP -0.23 (log10 mmHg) (via eChemPortal).
For CCC[C@H]1CC[C@H](c2ccc(-c3ccc(-c4cc(F)c(OC(F)(F)F)c(F)c4)c(F)c3)cc2)CC1 the data give log VP -9.031 (log10 mmHg) (via eChemPortal).
For CCC(CO)(CO)C(=O)O the data give log VP -6.921 (log10 mmHg) (via eChemPortal).
For CCCCCC(CO)Cc1ccccc1 (configuration not stated) the data give log VP -1.202 (log10 mmHg) (via eChemPortal).
For [N-]=[N+]=C1C=C(S(=O)(=O)[O-])c2ccccc2C1=O.[Na+] the data give log VP -4.954 (log10 mmHg) (via eChemPortal).
For CCCCCCCCCCCCCCC(C)c1cc(C)cc(C)c1O (configuration not stated) the data give log VP -6.202 (log10 mmHg) (via eChemPortal).
For CN(C)CCC(=O)N(C)C the data give log VP 1.176 (log10 mmHg) (via eChemPortal).
For CCC(C)n1ncn(-c2ccc(N3CCN(c4ccc(OC)cc4)CC3)cc2)c1=O (configuration not stated) the data give log VP -9.772 (log10 mmHg) (via eChemPortal).
For Cc1cc(O[C@@H]2O[C@H](CO)[C@@H](O)[C@H](O)[C@H]2O)cc2c1O[C@](C)(CCC[C@H](C)CCC[C@H](C)CCCC(C)C)CC2 the data give log VP ≤ -16 (log10 mmHg) (via eChemPortal).
For CCOCCCNS(=O)(=O)c1ccc(Oc2cc(O)c3c(c2N)C(=O)c2ccccc2C3=O)cc1 the data give log VP -14.64 (log10 mmHg) (via eChemPortal).
For C[SiH](C)O[Si](C)(C)O[Si](C)(C)O[Si](C)(C)O[SiH](C)C the data give log VP -0.244 (log10 mmHg) (via eChemPortal).
For COc1cc([N+](=O)[O-])ccc1N=NC(C(C)=O)C(=O)Nc1ccc(S(=O)(=O)NCCCN(C)C)cc1 (configuration not stated) the data give log VP -8.201 (log10 mmHg) (via eChemPortal).
For FC(F)(F)C(F)(F)C(F)(F)C(F)(F)C(F)(F)C(F)(F)C(F)(F)C(F)(F)C(F)(F)F the data give log VP 0.985 (log10 mmHg) (via ICF).
For O=C(O)CN(CCO)CCO the data give log VP -4.624 (log10 mmHg) (via eChemPortal).
For OCC1CCCCO1 (configuration not stated) the data give log VP -1 (log10 mmHg) (via OCHEM).
For CCCC1CCCC(=O)O1 (configuration not stated) the data give log VP -1.821 (log10 mmHg) (via eChemPortal).
For O=COCCOC=O the data give log VP 0.111 (log10 mmHg) (via eChemPortal).
For CCCC1CCC(C2CCC(C(F)(F)Oc3cc(F)c(F)c(F)c3)CC2)CC1 (configuration not stated) the data give log VP -7.784 (log10 mmHg) (via eChemPortal).
For CN1CCSC1=S the data give log VP -2.933 (log10 mmHg) (via eChemPortal).
For CC(=O)OC/C=C(\C)C=O the data give log VP -1.002 (log10 mmHg) (via eChemPortal).
For NCC(=O)O.[Zn] the data give log VP -10.25 (log10 mmHg) (via eChemPortal).
For CC1CCOC1 (configuration not stated) the data give log VP 1.807 (log10 mmHg) (via eChemPortal).
For CC1(C)CC(O)CC(C)(C)N1CCO the data give log VP -6.301 (log10 mmHg) (via eChemPortal).
For O=C(O)[C@H](O)[C@@H](O)C(=O)O the data give log VP -7.068 (log10 mmHg) (via OCHEM, eChemPortal).
For CCO[Si](OCC)(OCC)N(CC)CC the data give log VP -0.296 (log10 mmHg) (via eChemPortal).
For CC/C=C\CCOC(=O)OC the data give log VP -0.596 (log10 mmHg) (via eChemPortal).
For CC1CNCC(C)O1 (configuration not stated) the data give log VP 0.495 (log10 mmHg) (via eChemPortal).
For CCCCCCOC(=O)CC the data give log VP 0.035 (log10 mmHg) (via eChemPortal).
For COc1ccc(Cl)c(OC)c1O the data give log VP -2.205 (log10 mmHg) (via OCHEM).
For C=C[C@H]1CC[C@H]([C@H]2CC[C@H](c3ccc(C)cc3)CC2)CC1 the data give log VP -5.835 (log10 mmHg) (via eChemPortal).
For CCOC(=O)C(C)CC (configuration not stated) the data give log VP 0.944 (log10 mmHg) (via eChemPortal).
For O=C=NCc1cccc(N2C(=O)N(c3cccc(CN=C=O)c3)C2=O)c1 the data give log VP -9.443 (log10 mmHg) (via eChemPortal).
For CC/C=C(\C)C(=O)O the data give log VP -1.913 (log10 mmHg) (via eChemPortal).
For O=C1OC(=O)c2cc(-c3ccc4c(c3)C(=O)OC4=O)ccc21 the data give log VP -7.214 (log10 mmHg) (via eChemPortal).

The first 4 entries again:

Listed for O=C(CCCl)OCCCCCl: log VP -2.921 (log10 mmHg) (via eChemPortal).
Listed for CCOC(=O)C(C)C(Br)CBr (configuration not stated): log VP -2.28 (log10 mmHg) (via eChemPortal).
Listed for Cc1nc2n(c(=O)c1CCN1CCC(/C(=N/O)c3ccc(F)cc3F)CC1)CCCC2: log VP -8.106 (log10 mmHg) (via eChemPortal).
Listed for C=CCCCC=CCOC: log VP 0.033 (log10 mmHg) (via eChemPortal).

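OPERA's authors assembled the values from existing databases and did not measure them anew. The files give a single number for a compound and property, which may rest on several reports. Method, purity and exact conditions of the single measurements are not given. A value may pool stereoisomers or salt forms, and the file does not say which form was measured. Some upstream entries may be estimates or bounds without being marked so.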